This passage reports RatioGI50 results from ChEMBL document CHEMBL3124896, “Optimization of the lactam side chain of 7-azaindenoisoquinoline topoisomerase I inhibitors and mechanism of action studies in cancer cells” (2014).

The assay in a line: Resistance ratio of GI50 for vinblastine-resistant human KBV1 cells to GI50 for human KB 3.1 cells. In kind it is functional. The gist of the method:
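Relative resistance = GI50 in the resistant subline divided by GI50 in the parental line. Both GI50s came from 72 h continuous-exposure MTS growth assays, each based on at least two independent determinations.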

Regarding `COc1cccc2c1C(=O)c1c(O)c3c(c(O)c1C2=O)C[C@@](O)(C(=O)CO)C[C@@H]3O[C@H]1C[C@H](N)[C@H](O)[C@H](C)O1` [DOXORUBICIN], the RatioGI50 was >1.48.
